Literature values, collected in publication PMC4322620 (Frontiers in Pharmacology, 2015).

Tested on: formalin-induced pain
Conditions: ref Roussy et al., 2008; cited from earlier work

CC[C@H](C)[C@H](NC(=O)[C@H](Cc1ccc(O)cc1)NC(=O)[C@@H]1CCCN1C(=O)[C@H](CCCNC(=N)N)NC(=O)[C@H](CCCNC(=N)N)NC(=O)[C@@H]1CCCN1C(=O)[C@H](CCCCN)NC(=O)[C@H](CC(N)=O)NC(=O)[C@H](CCC(=O)O)NC(=O)[C@H](Cc1ccc(O)cc1)NC(=O)[C@H](CC(C)C)NC(=O)[C@@H]1CCC(=O)N1)C(=O)N[C@@H](CC(C)C)C(=O)O
ED50 in rat formalin assay: 0.11 nmol
